Target: acetylcholinesterase (AChE), human recombinant (Homo sapiens, UniProt P22303)
Test: Acetylcholinesterase inhibition, IC50 (AChE, mE, hr)
Type: biochemical
Details: read-out: IC50 (AChE, mE, hr); human recombinant enzyme; pre-incubation of the enzyme with inhibitor

The chains behind the UniProt entries cited, without tags or fusion partners. Residues count along the entry.
UniProt P22303, 32-614 limits assumed: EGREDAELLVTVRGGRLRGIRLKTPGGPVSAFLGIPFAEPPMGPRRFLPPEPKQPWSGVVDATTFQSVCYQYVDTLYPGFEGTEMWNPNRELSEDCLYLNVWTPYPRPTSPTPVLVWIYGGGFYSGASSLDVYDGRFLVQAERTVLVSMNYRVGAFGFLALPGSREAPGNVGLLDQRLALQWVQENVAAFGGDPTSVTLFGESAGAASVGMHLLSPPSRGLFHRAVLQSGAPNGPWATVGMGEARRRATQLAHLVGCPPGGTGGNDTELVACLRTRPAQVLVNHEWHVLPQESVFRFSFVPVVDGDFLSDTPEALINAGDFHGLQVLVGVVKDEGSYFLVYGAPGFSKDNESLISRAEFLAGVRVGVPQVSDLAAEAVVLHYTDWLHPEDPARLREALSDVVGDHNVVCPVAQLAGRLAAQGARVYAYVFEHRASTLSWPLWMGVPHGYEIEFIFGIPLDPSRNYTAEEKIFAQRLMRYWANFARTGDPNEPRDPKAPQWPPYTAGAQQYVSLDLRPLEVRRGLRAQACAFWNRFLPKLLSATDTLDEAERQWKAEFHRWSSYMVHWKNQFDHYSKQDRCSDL

In the case of `COc1ccc2c3c1O[C@@H]1CC(O)C=CC31CC[N+]([O-])=C2` (stereo partly shown), the IC50 is reported as 50 µM.
